# From PubChem BioAssay
# Yeast UUG start – modulators of yeast start codon fidelity, primary screen, whole organism, S. cerevisiae, single point, plate reader; S. cerevisiae UUG-firefly luciferase reporter, luminescence/redox ratio; activity score, % at 18.7 µM; 0.13% of 350,000 active; AID 602363, 2012;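 active = replicate mean at a twofold rise or more, about +100% in these data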;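 also: firefly luciferase made from a UUG start codon reports start codon fidelity; reporter light over untreated wells divided by growth signal over untreated wells; some hits fall short of that in this replicate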
# CAL PDZ FP-1 – inhibitors of human CAL PDZ peptide binding. purified CAL PDZ, TMR-peptide fluorescence polarization, 1 h. inhibition, % at 24.9 µM. 0.92% of 300,000 active. AID 602252;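 active = mean inhibition of at least 30% with at least half of replicates also reaching 30%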;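 note: 0% = DMSO neutral control and 100% = excess unlabeled competitor peptide PRC23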
# DYRK1A inh – blocks rat Dyrk1A kinase activity | ADP-Glo luminescence, NFATc1 peptide | inhibition, % at 12.5 µM | 0.43% of 310,000 active | AID 504441; in the data active = inhibition above about 50%;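 note: plate controls were vehicle with enzyme for no effect and no enzyme for full effect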
# CAL PDZ FP-2 – inhibitors of human CAL PDZ peptide binding; AID 504414; Q9HD26; inhibition, % at 20 µM; purified CAL PDZ, TMR-peptide fluorescence polarization, 1 h; 0.02% of 330,000 active;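 active = highest replicate inhibition of at least 40%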;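 note: plate controls were DMSO neutral control wells for no effect and unlabeled competitor peptide control wells for full effect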
#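 material = purified tagged CAL PDZ domain construct (CerCALP) | buffer or medium = sodium phosphate/NaCl buffer pH 7.4 with TCEP, IgG, Thesit | reagent = TMR-labelled reporter peptide T*-PRC34 bound in PDZ groove | incubation = 1 h room-temperature incubation prior to read | measured by = fluorescence polarization (mP) | evaluation = percent inhibition from loss of millipolarization | control set = unlabelled peptide and DMSO controls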
# CDK5 p35 inh – inhibitors of human CDK5/p35 kinase; 0.01% of 330,000 active; inhibition, % at 10 µM; Recombinant CDK5/p35, ADP-Glo luminescence, 60 min; Q00535+Q15078;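 active = highest replicate inhibition of at least 50% and at least 75% of replicates reaching 50%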;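 note: plate controls were DMSO neutral control for no effect and GW8510 at 10 µM for full effect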
# dFosB act-1 – mouse delta FosB homodimer activation; purified delta FosB, TAMRA-CDK5 oligo fluorescence polarization; percent of positive-control signal above neutral wells; P13346; 0.99% of 340,000 active; activation, % at 25 µM;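 active = mean activation above about 17%, with every replicate also reaching it, limit read from the data, passing the limit was not always enough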
# dFosB act-2 – enhances mouse delta FosB homodimer binding to DNA; shares compounds with dFosB act-1; purified delta FosB, TAMRA-CDK5 oligo fluorescence polarization; normalised: neutral wells 0, positive control 100; activation, % at 24.9 µM; 2,400 tested, under 10 active; AID 588690;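 active = highest replicate activation at or above 34% and every replicate reaching that threshold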;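 note: higher polarization means more probe DNA bound by delta FosB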
# The depositor's hits bear a star; x = no result. Only some compounds are listed: those with a hit (about 1.7% of all), similar ones and a draw of the others.
SMILES,Yeast UUG start,CAL PDZ FP-1,DYRK1A inh,CAL PDZ FP-2,CDK5 p35 inh,dFosB act-1,dFosB act-2
C[C@H](CO)N1C[C@H](C)[C@@H](CN(C)C(=O)CC2CC2)Oc2cc(C#CC(C)(C)O)ccc2S1(=O)=O,0,x,x,x,x,x,x
CCOc1ccc(NC(=S)NC(=O)/C=C/c2ccc(OC)c(OC)c2)c([N+](=O)[O-])c1,-27,-5,-1,0,-2,25*,4
CCOc1ccc(NC(=O)/C=C/c2ccc(OC)cc2)c([N+](=O)[O-])c1,-6,-3,-4,0,1,-3,x
CCOc1ccc(NC(=S)NC(=O)/C=C/c2ccc(C)cc2)c([N+](=O)[O-])c1,x,-3,-2,-1,0,39*,2
CCO[C@H]1OC(C(=O)N2CCOCC2)=C[C@@H](C2CCCCC2)[C@@H]1CCCO,4,x,x,x,x,x,x
O=C(Nc1ccc2c(c1)COC2=O)c1ccc(Cl)c(Cl)c1,-12,-3,11,-5,0,38*,6
O=C(Nc1ccc(Cl)c(Cl)c1)c1ccc(Cl)c(Cl)c1,-19,-1,-3,0,2,33*,2
CCCC(=O)Nc1ccc2c(c1)COC2=O,x,-1,x,0,1,0,x
Cc1ccc(NC(=O)Nc2ccc3c(c2)C(=O)OC3)cc1Cl,-8,x,-2,-1,0,29*,3
CCCC#Cc1ccc2c(c1)O[C@H](CN(C)C(=O)c1ccccc1)[C@H](C)CN([C@@H](C)CO)S2(=O)=O,8,x,x,x,x,x,x
CCS(=O)(=O)Nc1ccc(-c2nnc(SCC(=O)c3cccc(OC)c3)o2)cc1,-10,8,-3,-1,1,-3,x
CCS(=O)(=O)Nc1ccc(-c2nnc(SCC(=O)c3ccc(NC(C)=O)c(OC)c3)o2)cc1,x,-2,-1,-3,-1,34*,8
Cc1cc(C)c2c(N)c(C(=O)c3ccc(Cl)cc3)sc2n1,-14,-1,1,0,3,5,x
Cc1cc(C)c2c(N)c(C(=O)c3ccc(Cl)c(Cl)c3)sc2n1,x,x,1,0,-6,37*,4
CCOc1cc(/C=N/O)cc(Br)c1OCc1ccc(Cl)cc1,-8,-2,4,-1,1,32*,-1
O=S(=O)(Cc1ccccc1)c1ccccc1-c1nnc(-c2ccccc2)o1,-4,-2,-1,0,-1,32*,6
O=C(CSc1ccc(-c2ccc3c(c2)OCO3)nn1)Nc1nccs1,x,4,-3,-1,0,36*,-4
CN(C)c1nc(N/N=C\c2ccc(Cl)c([N+](=O)[O-])c2)nc(Nc2ccc(F)cc2)n1,2,-2,-2,-2,2,118*,-17
O=C(N/N=C\c1cccc(Cl)c1)c1ccc(Cn2cccn2)o1,-12,2,x,-4,0,-18,x
O=C(N/N=C\c1cccc(Cl)c1)c1ccc(Cn2cc(Br)c([N+](=O)[O-])n2)o1,x,86*,7,4,2,33*,-1
Cc1ccc(/C=N\NC(=O)c2ccc(Cn3cc(Br)c([N+](=O)[O-])n3)o2)o1,x,-3,-7,-3,-1,27*,-8
COc1ccc(NC(=O)N(C)C[C@@H]2Oc3ccc(NC(=O)C4CC4)cc3C(=O)N([C@@H](C)CO)C[C@H]2C)cc1,-6,x,x,x,x,x,x
CC(C)COc1ccc(-c2nn(-c3ccccc3)cc2C(=O)Nc2nccs2)cc1,-8,-7,-5,-4,-4,39*,1
CC(=O)Nc1nc(-c2cc([N+](=O)[O-])cs2)cs1,x,-4,3,-1,-1,29*,-2
O=C(Nc1ccc(Cl)cc1)Nc1nc(-c2ccccc2)cs1,x,x,15,-1,1,30*,6
O=C(Nc1ccc([N+](=O)[O-])cc1)Nc1nc(-c2ccc(Cl)s2)cs1,x,0,2,-5,-3,29*,7
CCCNC(=O)C[C@@H]1CC[C@@H]2[C@H](COc3ccc(NC(=O)c4cccc(Cl)c4)cc3C(=O)N2C)O1,7,x,x,x,x,x,x
O=C(Nc1ccc([N+](=O)[O-])cc1Br)c1cc2ccccc2nc1Cl,-10,7,-6,0,0,113*,-6
Cc1occc1C(=O)Nc1ccc([N+](=O)[O-])cc1Br,-14,-1,-2,-1,-1,-3,x
Cc1ccc(NC(=O)[C@H](NC(=O)[C@@H]2Cc3ccccc3CN2)c2ccccc2)c(C)c1,0,x,1,-1,1,-7,x
Cc1ccc(NC(=O)[C@H](Cc2c[nH]c3ccccc23)NC(=O)[C@@H]2Cc3ccccc3CN2)c(C)c1,8,6,-2,0,1,34*,4
Cc1cc(C)cc(NC(=O)[C@H](NC(=O)[C@@H]2Cc3ccccc3CN2)c2ccccc2)c1,x,-3,-5,-2,-1,47*,1
CC(C)c1ccc(NC(=O)[C@@H](C)NC(=O)[C@@H]2Cc3ccccc3CN2)cc1,x,-4,-6,-2,2,-4,x
CC(C)C[C@H](NC(=O)[C@@H]1Cc2ccccc2CN1)C(=O)Nc1ccc(C(C)C)cc1,-18,8,-2,-1,0,23*,-2
COc1ccccc1S(=O)(=O)N[C@@H]1CC[C@H](CCNC(=O)C2CC2)O[C@H]1CO,-2,x,x,x,x,x,x
COCC#Cc1cnc2c(c1)C(=O)N([C@@H](C)CO)C[C@H](C)[C@H](CN(C)C)O2,-7,x,x,x,x,x,x
COc1ccc(NC(=O)Nc2ccc3c(c2)C(=O)N([C@H](C)CO)C[C@@H](C)[C@H](CN(C)S(=O)(=O)c2ccc(OC)cc2)O3)cc1,-3,x,x,x,x,x,x
Cc1noc(C(=O)Nc2ccc(F)c(Cl)c2)c1Cl,-20,-5,0,0,1,24*,4
Cc1ccc(NC(=O)c2onc(C)c2Cl)cc1,-16,x,5,0,0,4,x
O=C(N/N=C/c1ccc(-c2cccc(C(F)(F)F)c2)o1)c1ccccc1O,x,0,3,-2,-1,32*,4
O=C(N/N=C/c1ccc(-c2cccc([N+](=O)[O-])c2)o1)c1ccccc1O,x,-3,8,-2,-2,22*,-1
O=C(N/N=C/c1ccc(-c2cccc(C(F)(F)F)c2)o1)c1ccccc1Br,x,-5,1,-3,0,-1,x
Cc1cc(C)c(NC(=O)CSCc2nc3sc(C)c(C)c3c(=O)[nH]2)c(Cl)c1,-11,x,-7,-1,1,32*,1
CCC(=O)N[C@@H]1CC[C@@H](CC(=O)OC)O[C@@H]1CO,-2,x,x,x,x,x,x
NS(=O)(=O)c1cccc(NC(=O)c2cc(=O)c3ccccc3o2)c1,0,-4,-3,-4,-2,19*,-2
